Earlier results, collected in patent publication US20250221927A1, “[…] PREPARATION AND USE THEREOF” (YICHANG HUMANWELL PHARMACEUTICAL CO., LTD., priority 2022, published 2025).

System: 5-HT

In the case of `CN[C@]1(c2ccccc2Cl)CCCCC1=O.Cl` [Esketamine, (S)-2-(2-chlorophenyl)-2-(methylamino)cyclohexanone hydrochloride], the “inhibitory effect on 5-HT, as share of L-ketamine” value is given as 50%.
